The structures appear in SMILES notation. The list shows a part of the results, in another mix than the full data. Calls of active or inactive are those of the source.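 How the source made its calls: active means mean inhibition over four retests above 40%; inactive means the rest.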

Sequences of proteins named here, by UniProt entry; tags and fusion partners are left off.
UniProt O00574, whole entry: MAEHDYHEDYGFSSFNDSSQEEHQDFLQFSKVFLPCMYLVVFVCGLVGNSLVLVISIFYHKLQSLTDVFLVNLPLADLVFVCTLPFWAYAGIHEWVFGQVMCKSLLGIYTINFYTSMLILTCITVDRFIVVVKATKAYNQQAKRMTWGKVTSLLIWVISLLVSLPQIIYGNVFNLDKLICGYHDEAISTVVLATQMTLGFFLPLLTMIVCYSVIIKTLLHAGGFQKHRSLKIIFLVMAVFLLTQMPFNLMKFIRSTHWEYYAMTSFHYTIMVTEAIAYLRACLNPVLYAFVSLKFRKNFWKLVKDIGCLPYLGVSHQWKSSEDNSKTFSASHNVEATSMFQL

For this test, the target named is C-X-C chemokine receptor type 6 (Homo sapiens) (UniProt O00574). Description: CXCR6 beta-arrestin signal inhibition by hits – cell-based, single concentration, luminescence, confirmation (AID 602409).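 Further: receptor stimulated with 10 nM CXCL16 agonist; beta-galactosidase fragment complementation upon beta-arrestin recruitment to receptor; plate controls were CXCL16 plus DMSO for no effect and DMSO without CXCL16 for full effect.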 Conditions: CHO-K1 CXCR6 PathHunter beta-arrestin, at 20 µM, active compounds read high.
For the compound `O=[N+]([O-])c1cc([N+](=O)[O-])c(Nc2ccc(Cl)cc2)c([N+](=O)[O-])c1`, the inhibition (in general, the change of the read-out against control, counted positive when it falls) is inactive: 34.5%.
For the compound `Cc1ccc(Nc2c([N+](=O)[O-])cc([N+](=O)[O-])cc2[N+](=O)[O-])cc1`, the inhibition was active: 46.4%.
On to `O=C(O)c1cccc(Nc2c([N+](=O)[O-])cc([N+](=O)[O-])cc2[N+](=O)[O-])c1`, for which the inhibition is active: 43.9%.

For the origin of these results see PubChem BioAssay AID602409 (Sanford-Burnham Center for Chemical Genomics, 2012).
